Data reported in ChEMBL document CHEMBL1125007 (J Med Chem, 1990).

Assays:
[1] = Rate constant for alkylation of 4-(4-nitrobenzyl)pyridine; type: ADME
[2] = Rate constant for hydrolysis in aqueous acetone.; type: ADME; set-up: scale not given here; conditions: buffer

`Cc1ccc(N(CCCl)CCCl)cc1` gave a KNBP [1] of 1.11e+06 s⁻¹ and a KH [2] of 47100 s⁻¹.
